# The entries are a selection whose mix differs from that of the whole data set. Calls of active or inactive are those of the source.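 Rule for the calls: active = inhibition above about 30% (limit read from the data); inactive = the rest.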
# Amino acid sequences for entries named in this document (tags omitted).
# UniProt P63073, whole entry, looked up: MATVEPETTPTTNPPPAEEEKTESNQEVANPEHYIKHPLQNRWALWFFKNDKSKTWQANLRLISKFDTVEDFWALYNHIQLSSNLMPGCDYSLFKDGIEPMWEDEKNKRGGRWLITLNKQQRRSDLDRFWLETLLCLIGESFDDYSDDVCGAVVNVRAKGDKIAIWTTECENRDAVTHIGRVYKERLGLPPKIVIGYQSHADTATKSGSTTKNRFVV
# UniProt Q04637, whole entry, looked up: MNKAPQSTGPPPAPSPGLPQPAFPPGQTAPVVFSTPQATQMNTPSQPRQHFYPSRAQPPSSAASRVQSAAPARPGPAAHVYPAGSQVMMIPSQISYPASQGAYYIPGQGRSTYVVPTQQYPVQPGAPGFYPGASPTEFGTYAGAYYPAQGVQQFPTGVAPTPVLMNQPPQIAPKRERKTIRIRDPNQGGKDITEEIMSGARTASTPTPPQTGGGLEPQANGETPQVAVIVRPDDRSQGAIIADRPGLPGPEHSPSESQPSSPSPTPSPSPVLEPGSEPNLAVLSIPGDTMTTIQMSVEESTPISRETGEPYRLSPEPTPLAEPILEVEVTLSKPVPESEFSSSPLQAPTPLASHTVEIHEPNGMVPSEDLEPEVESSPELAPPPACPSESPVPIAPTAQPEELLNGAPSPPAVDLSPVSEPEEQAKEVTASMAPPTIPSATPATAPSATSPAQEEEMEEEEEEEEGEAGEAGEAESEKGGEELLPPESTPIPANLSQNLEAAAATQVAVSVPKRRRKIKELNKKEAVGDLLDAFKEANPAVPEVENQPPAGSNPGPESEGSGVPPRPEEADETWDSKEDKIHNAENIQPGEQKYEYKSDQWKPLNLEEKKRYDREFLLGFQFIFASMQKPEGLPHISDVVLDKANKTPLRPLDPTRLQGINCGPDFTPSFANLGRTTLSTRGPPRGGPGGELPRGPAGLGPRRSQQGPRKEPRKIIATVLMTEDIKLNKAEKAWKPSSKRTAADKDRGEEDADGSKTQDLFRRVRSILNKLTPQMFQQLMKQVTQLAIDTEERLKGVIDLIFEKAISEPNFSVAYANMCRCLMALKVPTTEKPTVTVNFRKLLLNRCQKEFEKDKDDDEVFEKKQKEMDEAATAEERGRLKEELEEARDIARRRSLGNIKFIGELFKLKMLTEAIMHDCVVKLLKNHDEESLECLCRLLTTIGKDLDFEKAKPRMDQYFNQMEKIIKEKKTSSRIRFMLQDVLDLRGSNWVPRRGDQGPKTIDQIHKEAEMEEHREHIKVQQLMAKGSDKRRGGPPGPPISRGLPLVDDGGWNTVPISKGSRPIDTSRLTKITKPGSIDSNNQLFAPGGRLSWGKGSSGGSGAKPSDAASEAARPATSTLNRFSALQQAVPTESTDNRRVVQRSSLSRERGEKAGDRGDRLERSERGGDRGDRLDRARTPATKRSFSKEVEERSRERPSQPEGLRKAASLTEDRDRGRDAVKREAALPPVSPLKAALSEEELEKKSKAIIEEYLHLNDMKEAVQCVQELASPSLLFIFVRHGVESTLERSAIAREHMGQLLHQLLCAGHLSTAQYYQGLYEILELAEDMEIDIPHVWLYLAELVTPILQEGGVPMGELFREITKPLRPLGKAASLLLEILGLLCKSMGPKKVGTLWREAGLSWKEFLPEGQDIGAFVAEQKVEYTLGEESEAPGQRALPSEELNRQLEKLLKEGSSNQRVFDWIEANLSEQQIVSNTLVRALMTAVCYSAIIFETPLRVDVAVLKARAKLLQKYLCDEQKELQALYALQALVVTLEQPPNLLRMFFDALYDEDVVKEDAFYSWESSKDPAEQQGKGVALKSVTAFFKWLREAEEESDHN
# Molecular target: Eukaryotic translation initiation factor 4E (Mus musculus) + Eukaryotic translation initiation factor 4 gamma 1 (Homo sapiens) (UniProt P63073+Q04637)
# Experiment: blockers of eIF4G binding by eIF4E – biochemical, uHTS, TR-FRET, eIF4GI fragment, primary screen (AID 782);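 note: 0% = full FRET control wells and 100% = background wells lacking eIF4GI fragment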
# Conditions: TR-FRET eIF4E-eIF4GI(517-606) binding, 2 h; at 21.7 µM; stronger effect = higher value
row,Structure (SMILES),inhibition
1,N/C(=N\O)c1c(N)no[n+]1[O-],inactive: -4.17%
2,O=C(OC1CN2CCC1CC2)C1c2ccccc2C=Cc2ccccc21 (centres undefined),inactive: -0.52%
3,COc1ccc(C(=O)NCC2(N3CCOCC3)CCCCC2)cc1OC,inactive: 0.51%
4,c1ccc(CN2CCC(Nc3ccccc3)CC2)cc1,inactive: -8.37%
5,N#Cc1ccc(C(=O)NCC2(N3CCCCC3)CCCCC2)cc1,inactive: 3.43%
6,CCN1CCC(Nc2cccc(F)c2)CC1,inactive: -5.11%
7,CN(C)c1ccc(C(=O)NCC2(N3CCCCC3)CCCCC2)cc1,inactive: 2.27%
8,Fc1ccccc1NC1CCN(Cc2ccccc2)CC1,inactive: 0.11%
9,CCC(CO)(C(=O)OC1CN2CCC1CC2)c1ccccc1 (centres undefined),inactive: 4.28%
10,COc1cc(OC)cc(C(=O)NCC2(N3CCOCC3)CCCCC2)c1,inactive: -3.12%
11,CCCOc1ccc(C)cc1CN(CCCl)CCCl,inactive: -1.45%
12,CCOc1ncccc1C(=O)NCC1(N2CCOCC2)CCCCC1,inactive: -1.91%
13,CC(C)(C)OC(=O)N1CCC(Nc2ccccc2)CC1,inactive: -0.47%
14,O=C(NCC1(N2CCOCC2)CCCCC1)c1cc2ccccc2o1,inactive: -0.65%
15,CCOC(=O)N1CCC(Nc2ccc(OC)cc2)CC1,inactive: 2.2%
16,O=C(OC1CN2CCC1CC2)C1c2ccccc2Oc2ccccc21 (centres undefined),inactive: -2.49%
17,N#CC1(Nc2ccccc2)CCN(Cc2ccccc2)CC1,inactive: -4.6%
18,COc1ccc(C(=O)NCC2(N3CCCCC3)CCCCC2)c(OC)c1OC,inactive: -1.09%
19,Cc1ccc(OCC(C)C)c(CN(CCCl)CCCl)c1,inactive: 4.22%
20,CCOc1ccc(C)cc1CN(CCCl)CCCl,inactive: 2.72%
21,COc1ccc(NC2CCN(CCc3ccccc3)CC2)c(OC)c1,inactive: 2.2%
22,COc1ccc(NC2CCN(C(=O)OC(C)(C)C)CC2)cc1,inactive: 8.68%
23,CN1CCN(CCOC(=O)C(O)(c2ccccc2)c2ccccc2)CC1,inactive: 0.32%
24,O=C(NCC1(N2CCOCC2)CCCCC1)c1cc(=O)[nH]c2ccccc12,inactive: 1.61%
25,O=C(NCC1(N2CCCCC2)CCCCC1)c1cccc([N+](=O)[O-])c1,inactive: -1.67%
26,N#CC1(Nc2ccccc2)CCN(CCc2ccccc2)CC1,inactive: 1.28%
27,COc1ccc(CN(CCCl)CCCl)cc1Cl,inactive: 8.72%
28,CN(C)c1cccc(C(=O)NCC2(N3CCCCC3)CCCCC2)c1,inactive: 5.56%
29,CC(C)c1ccc(NC2CCN(C(=O)OC(C)(C)C)CC2)cc1,inactive: -0.31%

# From PubChem BioAssay AID782 (Emory University Molecular Libraries Screening Center, 2007)
